Measurements reported in PubChem BioAssay AID784 (The Scripps Research Institute Molecular Screening Center, 2007).
The entries are a selection whose mix differs from that of the whole data set. Some tests of the compounds listed are not included; inactive here does not mean inactive elsewhere. Calls of active or inactive are those of the source. Cut-off read from the data, not from the text of the source: active = activation above about 65%; inactive = the rest.

Chains of the proteins cited; added tags and fusions are not shown.
UniProt P04062, whole entry L483P: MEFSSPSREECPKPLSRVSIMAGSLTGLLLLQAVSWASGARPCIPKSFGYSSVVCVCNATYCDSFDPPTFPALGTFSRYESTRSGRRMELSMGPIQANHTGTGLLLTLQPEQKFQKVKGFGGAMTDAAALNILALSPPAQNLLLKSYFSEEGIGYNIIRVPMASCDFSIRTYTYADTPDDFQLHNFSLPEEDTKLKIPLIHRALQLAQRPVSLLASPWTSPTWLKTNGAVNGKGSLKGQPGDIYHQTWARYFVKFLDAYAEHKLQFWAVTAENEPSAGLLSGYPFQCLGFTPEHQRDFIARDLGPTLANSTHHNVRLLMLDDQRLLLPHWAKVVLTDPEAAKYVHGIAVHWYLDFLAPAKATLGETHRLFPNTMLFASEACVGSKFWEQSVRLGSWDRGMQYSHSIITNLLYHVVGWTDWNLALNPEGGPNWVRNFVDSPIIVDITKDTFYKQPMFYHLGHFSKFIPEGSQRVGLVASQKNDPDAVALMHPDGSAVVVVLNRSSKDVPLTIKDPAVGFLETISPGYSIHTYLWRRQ

biological target: Lysosomal acid glucosylceramidase (Homo sapiens) (UniProt P04062); assay: raising glucocerebrosidase activity, Gaucher cells – primary screen (AID 784); conditions: L444P Gaucher fibroblasts, 4-MU-glucoside fluorescence, 3 days; at 10 µM; hits give high values;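 note: 0% = vehicle wells and 100% = positive control wells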

Structure (SMILES)	activation
O=C(OC1CN2CCC1CC2)C(CO)(c1ccccc1)c1ccccc1 (stereo unspecified)	inactive: -5.03%
